{"source": "PubChem BioAssay AID504775", "about": "(Broad Institute, 2011)", "note": "The list shows a part of the results, in another mix than the full data. Some salts or complexes appear as unconnected parts, following the source record. The source made the active and inactive calls.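 Rule for the calls: active = mean replicate activation of at least 60% and every replicate at or above 60%; inconclusive = mean or all-replicate condition met, but not both; inactive = mean below 60% and not all replicates reaching 60%.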"}
{"assay": "activators of SR-BI mediated DiI-HDL uptake, primary screen, ldlA[mSR-BI] CHO cells, DiI fluorescence (AID 504775);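 note: 0% = median plate neutral-control signal and 100% = twice that signal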", "conditions": "3 h, at 12.5 µM, stronger effect = higher value, 100 = double the neutral-control signal", "procedure,_shortened": "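System: LDL receptor-deficient CHO ldlA cells overexpressing murine SR-BI | Timing: 3 h uptake period with compound, 37 °C | Medium: HEPES-buffered (25 mM, pH 7.4) F12 plus 0.5% BSA | Dosing: Single-point compound dose | Signal: Bottom-read fluorescence, 550/595 nm | Read-out: Retained DiI signal reflecting DiI-HDL uptake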"}
{"compound": "O=[N+]([O-])c1cc([N+](=O)[O-])c(Nc2cccnc2)c([N+](=O)[O-])c1", "activation": "inactive: 23.5%"}
{"compound": "CC(C)(C)c1ccc(OP(C)(=O)Nc2ccc(SC(F)(F)F)cc2)cc1", "note": "(configuration not stated)", "activation": "inactive: -14.6%"}
{"compound": "Cc1cccc(C)c1OP(C)(N)=O", "note": "(configuration not stated)", "activation": "inactive: 19.3%"}
{"compound": "O=[N+]([O-])c1ccc2c(c1)C=Nc1ccccc1O2", "activation": "inactive: -3.46%"}
{"compound": "CCOC(=O)c1ccc(NP(C)(=O)Oc2ccccc2)cc1", "note": "(configuration not stated)", "activation": "inactive: 16.8%"}
{"compound": "COc1ccccc1OP(C)(=O)Nc1ccc(C)cc1", "note": "(configuration not stated)", "activation": "inactive: 22.8%"}
{"compound": "Cc1ccc(NP(C)(=O)Oc2ccccc2)c(C)c1", "note": "(configuration not stated)", "activation": "inactive: -4.88%"}
{"compound": "COc1ccccc1OP(C)(=O)Nc1cc(Cl)ccc1C", "note": "(configuration not stated)", "activation": "inactive: -28.8%"}
{"compound": "COc1ccc(OP(C)(=O)Nc2cccc(F)c2)cc1", "note": "(configuration not stated)", "activation": "inactive: -2.58%"}
{"compound": "Cc1cc(C)cc(OP(C)(N)=O)c1", "note": "(configuration not stated)", "activation": "inactive: 31.1%"}
{"compound": "CCN(CC)CCCOC(=O)C(O)(c1ccccc1)c1ccccc1", "activation": "inactive: -1.84%"}
{"compound": "Cc1cccc(C)c1OP(C)(=O)Nc1ccc(SC(F)(F)F)cc1", "note": "(configuration not stated)", "activation": "inactive: -15.2%"}
{"compound": "CP(=O)(Oc1ccccc1)OC(c1ccccc1)C(F)(F)F", "note": "(configuration not stated)", "activation": "inactive: 23.4%"}
{"compound": "CP(=O)(NC(=O)Nc1ccccc1)Oc1ccccc1", "note": "(configuration not stated)", "activation": "inactive: 31%"}
{"compound": "Cc1cc(C)cc(OP(C)(=O)Nc2ccc(SC(F)(F)F)cc2)c1", "note": "(configuration not stated)", "activation": "inactive: 15.3%"}
{"compound": "CCOP(C)(=S)SCC(=O)NC(C)C(=O)O", "note": "(configuration not stated)", "activation": "inactive: 11.2%"}
{"compound": "CCOC(=O)c1ccc(NP(C)(=O)Oc2ccc(OC)cc2)cc1", "note": "(configuration not stated)", "activation": "inactive: -15.4%"}
{"compound": "CP(=O)(Nc1ccccn1)Oc1ccc(Cl)cc1", "note": "(configuration not stated)", "activation": "inactive: 15.7%"}
{"compound": "CP(=S)(Nn1cnnc1)Oc1ccccc1", "note": "(configuration not stated)", "activation": "inactive: 11.6%"}
{"compound": "COc1ccccc1OP(C)(=O)Nc1ccccc1", "note": "(configuration not stated)", "activation": "inactive: 3.69%"}
{"compound": "CC1=C2N=C(C=C3N=C(C(C)=C4[N-][C@@](C)([C@@H]5N=C1[C@](C)(CCC(=O)NC[C@@H](C)OP(=O)([O-])O[C@H]1[C@@H](O)[C@@H](n6cnc7cc(C)c(C)cc76)O[C@@H]1CO)[C@H]5CC(N)=O)[C@@](C)(CC(N)=O)[C@@H]4CCC(N)=O)[C@@](C)(CC(N)=O)[C@@H]3CCC(N)=O)C(C)(C)[C@@H]2CCC(N)=O.[C-]#N.[Co+3]", "activation": "inactive: 3.45%"}
{"compound": "O=[N+]([O-])c1cc([N+](=O)[O-])c(Nc2nnnn2CCO)c([N+](=O)[O-])c1", "activation": "inactive: 7.74%"}
{"compound": "CCOC(=O)C(CC)C1=NC(C)(C)Cc2ccccc21.O=[N+]([O-])c1cc([N+](=O)[O-])c(O)c([N+](=O)[O-])c1", "note": "(configuration not stated)", "activation": "inactive: -1.44%"}
{"compound": "COc1ccccc1OP(C)(=O)Nc1c(C)cccc1C", "note": "(configuration not stated)", "activation": "inactive: 12.9%"}
{"compound": "CN1CCCCC1COC(=O)C1(O)c2ccccc2CCc2ccccc21", "note": "(configuration not stated)", "activation": "inactive: -3.92%"}
{"compound": "CCCOc1ccc(NP(C)(=O)Oc2ccc(Cl)cc2)cc1", "note": "(configuration not stated)", "activation": "inactive: -6.06%"}
{"compound": "CP(=O)(Nc1ccc(SC(F)(F)F)cc1)Oc1ccccc1", "note": "(configuration not stated)", "activation": "inactive: 4.62%"}
{"compound": "O=[N+]([O-])c1cc([N+](=O)[O-])c(-n2nnc3ccccc32)c([N+](=O)[O-])c1", "activation": "inactive: 12.8%"}
{"compound": "O=[N+]([O-])c1cc([N+](=O)[O-])c(-c2cnn(-c3ccccc3)c2)c([N+](=O)[O-])c1", "activation": "inactive: -31.8%"}
{"compound": "Cc1nc2ccc3ccccc3c2s1.O=[N+]([O-])c1cc([N+](=O)[O-])c(O)c([N+](=O)[O-])c1", "activation": "inactive: -10.9%"}
{"compound": "COc1ccccc1OP(C)(=O)Nc1cccc(Br)c1", "note": "(configuration not stated)", "activation": "inactive: 8.69%"}
{"compound": "Cc1cc(C)cc(OP(C)(=O)Nc2ccc(C)cc2C)c1", "note": "(configuration not stated)", "activation": "inactive: -27.2%"}
{"compound": "CCOC(=O)c1ccc(NP(C)(=O)Oc2cc(C)cc(C)c2)cc1", "note": "(configuration not stated)", "activation": "inactive: -6.86%"}
{"compound": "Cc1cc(C)cc(OP(C)(=O)Nc2ccccn2)c1", "note": "(configuration not stated)", "activation": "inactive: 8.53%"}
{"compound": "CP(=O)(Nc1cccc(Br)c1)Oc1ccccc1", "note": "(configuration not stated)", "activation": "inactive: -1.13%"}
{"compound": "Cc1ccc(C)c(NP(C)(=O)Oc2ccccc2)c1", "note": "(configuration not stated)", "activation": "inactive: 9.76%"}
{"compound": "COc1ccc(OP(C)(=O)Nc2ccc(SC(F)(F)F)cc2)cc1", "note": "(configuration not stated)", "activation": "inactive: 43.4%"}
{"compound": "CCOC(=O)c1ccc(NP(C)(=O)Oc2ccc(F)cc2)cc1", "note": "(configuration not stated)", "activation": "inactive: -2.22%"}
{"compound": "CCN(CC)CCCOC(=O)C(O)(c1ccccc1)C1CCCCC1", "note": "(configuration not stated)", "activation": "inactive: 23.1%"}
{"compound": "Cc1c([N+](=O)[O-])cc([N+](=O)[O-])c(Br)c1[N+](=O)[O-]", "activation": "inactive: -12.9%"}
{"compound": "O=[N+]([O-])c1cc([N+](=O)[O-])c(OC2CCCCC2O)c([N+](=O)[O-])c1", "note": "(configuration not stated)", "activation": "inactive: -1.94%"}
{"compound": "CCCCCOc1ccc(NP(C)(=O)Oc2ccc(Cl)cc2Cl)cc1", "note": "(configuration not stated)", "activation": "inactive: 21.1%"}
{"compound": "CP(=O)(Nc1ccccc1)Oc1ccc(F)cc1", "note": "(configuration not stated)", "activation": "inactive: 17%"}
{"compound": "CC(C)c1ccc(OP(C)(=O)Nc2ccc(SC(F)(F)F)cc2)cc1", "note": "(configuration not stated)", "activation": "inactive: 2.21%"}
{"compound": "CP(=O)(Nc1ccccc1F)Oc1ccccc1", "note": "(configuration not stated)", "activation": "inactive: 9.12%"}
{"compound": "O=C(OCCN1CCN(CCOCc2ccccc2)CC1)C(O)(c1ccccc1)c1ccccc1", "activation": "inactive: 0.742%"}
{"compound": "O=C(OC1CN2CCC1CC2)c1ccc([N+](=O)[O-])cc1", "note": "(configuration not stated)", "activation": "inactive: 6.48%"}
{"compound": "COc1ccc2c(c1O)-c1c(O)c(OC)cc3c1[C@H](C2)[N+](C)(C)CC3.O=[N+]([O-])c1cc([N+](=O)[O-])c([O-])c([N+](=O)[O-])c1[O-]", "activation": "inactive: 13.3%"}
{"compound": "CP(=O)(Nc1ccc(SC(F)(F)F)cc1)Oc1ccc(F)cc1", "note": "(configuration not stated)", "activation": "inactive: 2.3%"}
{"compound": "CCOP(C)(=S)SCC(=O)NC(C)(CC)C(=O)O", "note": "(configuration not stated)", "activation": "inactive: 0.118%"}
{"compound": "CP(=O)(Nc1ccc2c(c1)OCCO2)Oc1ccccc1", "note": "(configuration not stated)", "activation": "inactive: 23.5%"}
{"compound": "Cc1ccccc1NP(C)(=O)Nc1ccccc1C", "activation": "inactive: 17.7%"}
{"compound": "COc1ccc(OP(C)(=O)Nc2cccc(Br)c2)cc1", "note": "(configuration not stated)", "activation": "inactive: 2.34%"}
{"compound": "COc1ccc(NP(C)(=O)Oc2ccccc2OC)cc1", "note": "(configuration not stated)", "activation": "inactive: -15%"}
{"compound": "CN(C)CCOC(=O)C(O)(c1ccccc1)C1CCCCC1", "note": "(configuration not stated)", "activation": "inactive: -9.97%"}
{"compound": "O=[N+]([O-])c1cc([N+](=O)[O-])c(NCC2CCS(=O)(=O)C2)c([N+](=O)[O-])c1", "note": "(configuration not stated)", "activation": "inactive: 31.9%"}
{"compound": "Cc1cc(-c2cccc3ccccc23)c(C)cn1.O=[N+]([O-])c1cc([N+](=O)[O-])c(O)c([N+](=O)[O-])c1", "activation": "inactive: -13.1%"}
